Target: T1, Murine COX II (Mus musculus, UniProt Q05769)
T1 construct: A 2.0 kb fragment containing the coding region; made in house; host or cells: SF9 insect cells (baculovirus, transfer vector pVL1393)
T1 sequence (Q05769 18-604): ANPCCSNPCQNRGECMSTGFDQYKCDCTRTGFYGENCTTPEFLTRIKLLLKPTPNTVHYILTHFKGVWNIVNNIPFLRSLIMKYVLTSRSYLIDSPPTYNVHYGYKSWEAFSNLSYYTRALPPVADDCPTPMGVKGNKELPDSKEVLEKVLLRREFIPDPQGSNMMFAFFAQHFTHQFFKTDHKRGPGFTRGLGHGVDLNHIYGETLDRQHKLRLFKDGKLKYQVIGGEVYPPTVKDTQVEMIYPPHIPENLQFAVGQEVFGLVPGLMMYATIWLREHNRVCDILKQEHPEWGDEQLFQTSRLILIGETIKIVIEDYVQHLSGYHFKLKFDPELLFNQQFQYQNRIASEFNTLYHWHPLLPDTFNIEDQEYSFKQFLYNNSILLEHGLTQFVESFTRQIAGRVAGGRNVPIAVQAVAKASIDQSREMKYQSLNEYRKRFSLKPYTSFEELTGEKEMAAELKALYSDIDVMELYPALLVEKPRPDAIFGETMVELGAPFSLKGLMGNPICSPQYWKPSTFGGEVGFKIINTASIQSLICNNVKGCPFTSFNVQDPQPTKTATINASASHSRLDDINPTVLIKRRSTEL
Test: Assay for COX II activity in vitro (PGE2 ELISA, recombinant enzyme)
Assay type: biochemical
Conditions: read-out: Murine COX II ID50

## CS(=O)(=O)c1ccc(-c2csc(Br)c2-c2ccc(F)cc2)cc1 [Example 2, 4(4-Methylsulfonylphenyl)-3-(4-fluorophenyl)-2-bromothiophene]
  IC50: < 0.1 µM
